Bioassay records deposited in PubChem by several laboratories.
ALR inh = human ALR oxidase inhibition via reduced H2O2; P55789; purified ALR, DTT oxidation, H2O2 HRP-luminol luminescence; inhibition, % (concentration not given with the values); 3.8% of 290,000 active; AID 485317;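 active = mean and each replicate at 75% or more; inconclusive = only one of the two met; inactive = neither met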;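 note: stock transfer was 7.5 nL into about 7.5 µL; 0% = neutral wells and 100% = wells with inactivated enzyme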
HDAC3 inhib = blocks human histone deacetylase 3 | O15379 | inhibition, % at 8.3 µM | 320,000 compounds, 0.15% hits | recombinant HDAC3, fluorogenic peptide/trypsin coupled, fluorescence | AID 2718; in the data active = inhibition above about 26%, passing the limit was not always enough
NALP1 inh = inhibitors of NALP1 inflammasome in yeast. 280,000 compounds, 0.61% hits. inhibition, % at 10 µM. S. cerevisiae NALP1/ASC/caspase-1 growth, X-gal OD620, 72 h; in the data active = inhibition mostly above about 24%, no sharp cut-off; inactive = mostly below about 32%
MC4R barr agon = human MC4R agonism via beta-arrestin | AID 540308 | 360,000 compounds, 0.98% hits | U2OS MC4R beta-arrestin complementation, luminescence; percent of melanotan II response, DMSO zero | activation, % at 8.9 µM;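 active = activation above a per-plate cutoff, the mean activation of sample wells on that plate plus 3 SD, cut at about 8% in these data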
MC4R antag cAMP = antagonists of human melanocortin 4 receptor (MC4R). P32245. MC4R-expressing cells, MTII-stimulated cAMP, LANCE TR-FRET. inhibition, % at 6.5 µM. 360,000 compounds, 0.48% hits. AID 540295;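 active = inhibition above its plate's cutoff, the mean of tested wells on that plate plus 3 SD, cut at about 29% in these data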;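 note: 0% = Melanotan II alone and 100% = Melanotan II plus saturating MCL0020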
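Assay system: U2OS-MC4R stable cell line; Also added: Melanotan II; Technique: Eu-cAMP/anti-cAMP TR-FRET, emission 671 nm; Times: 30-min compound, 1-h challenge, 1-h detection, room temperature.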
UUG fidelity = alters start codon recognition fidelity in yeast. S. cerevisiae UUG-firefly luciferase reporter, luminescence/redox ratio. activity score, % at 18.7 µM. 0.13% of 350,000 active. AID 602363;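 active = replicate mean at a twofold rise or more, about +100% in these data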;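 also: firefly luciferase made from a UUG start codon reports start codon fidelity; reporter light over untreated wells divided by growth signal over untreated wells; some hits fall short of that in this replicate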
An asterisk follows results filed as active. Compounds with a hit are over-represented: about 4.2% of the library has one in this group of screens.

`OC1CCN(C(=S)Nc2ccc(Nc3ccccc3)cc2)CC1` gave ALR inh 99*, HDAC3 inhib -2, NALP1 inh 11, MC4R barr agon 1 and MC4R antag cAMP 18.
Cc1ccccc1S(=O)(=O)N[C@H]1CC[C@H](CCn2cc(Cc3ccccc3)nn2)O[C@H]1CO was read as UUG fidelity 20.
CNC[C@@H]1Oc2ncc(-c3ccc(OC)cc3)cc2C(=O)N([C@H](C)CO)C[C@@H]1C was read as UUG fidelity 1.
O=S(=O)(c1ccc2c(c1)OCCO2)N1CCC(O)(c2ccc(Cl)cc2)CC1 was read as ALR inh -9, HDAC3 inhib 0, NALP1 inh 35*, MC4R barr agon -1, MC4R antag cAMP 5 and UUG fidelity 8.
`O=S(=O)(c1cccc(Cl)c1)N1CCN(S(=O)(=O)c2ccc3c(c2)OCCO3)CC1` gave ALR inh 2, HDAC3 inhib 2, MC4R barr agon 1, MC4R antag cAMP 9 and UUG fidelity -13.
`Brc1csc(C=Nc2ccc3c(c2)OCCOCCOCCOCCO3)c1` gave ALR inh 100*, HDAC3 inhib 2, NALP1 inh 6, MC4R barr agon -2, MC4R antag cAMP -7 and UUG fidelity -4.
Screening Oc1c(Cl)cc(Cl)cc1C=Nc1ccc2c(c1)OCCO2 returned ALR inh -5, HDAC3 inhib 0, NALP1 inh 5, MC4R barr agon -3, MC4R antag cAMP 5 and UUG fidelity -23.
Brc1ccc(C=Nc2ccc3c(c2)OCCOCCOCCO3)s1 was read as ALR inh 89*, HDAC3 inhib -1, NALP1 inh 33, MC4R barr agon 1, MC4R antag cAMP 6 and UUG fidelity -8.
For O=C1NC(=O)/C(=C\c2ccc(Sc3ccc(Cl)cc3)o2)N1 the results were ALR inh 90*, HDAC3 inhib 7, NALP1 inh -15, MC4R barr agon 2, MC4R antag cAMP 1 and UUG fidelity 1.
Screening CN1CCN(c2nc(C#N)cc(-c3ccccc3)n2)CC1 returned HDAC3 inhib 3, NALP1 inh 24*, MC4R barr agon -1, MC4R antag cAMP -2 and UUG fidelity -13.
Screening COC(=O)c1ccccc1NC(=O)Oc1ccc(C(C)C)cc1 returned ALR inh 92*, HDAC3 inhib -6, NALP1 inh -6, MC4R barr agon -2, MC4R antag cAMP -6 and UUG fidelity 0.
O=C(NCCN1CCCC1=O)C1CCC(=O)N(CCc2ccc(Cl)cc2)C1 (stereo not given) was read as ALR inh -7, HDAC3 inhib -1, NALP1 inh 32*, MC4R barr agon 0, MC4R antag cAMP 3 and UUG fidelity -15.
Screening O=C(NCCN1CCCc2ccccc21)C1CCC(=O)N(CCc2ccccc2)C1 (stereo not given) returned ALR inh 86*, HDAC3 inhib 2, NALP1 inh 2, MC4R barr agon -2, MC4R antag cAMP 13 and UUG fidelity 15.
Screening O=C(NCCN1CCNC1=O)C1CCC(=O)N(CCc2ccc(Cl)cc2)C1 (stereo not given) returned NALP1 inh -2, MC4R barr agon -2, MC4R antag cAMP -2 and UUG fidelity 7.
`COc1cc(/C=N/n2cnnc2)ccc1OC(=O)c1ccncc1` gave ALR inh 98*, HDAC3 inhib 4, NALP1 inh -14, MC4R barr agon -1, MC4R antag cAMP 2 and UUG fidelity -20.
For COc1cc(/C=N/n2cnnc2)ccc1OC(=O)c1cccnc1 the results were HDAC3 inhib 7, NALP1 inh 16, MC4R barr agon 0 and MC4R antag cAMP 5.
Screening CCCC(=O)C1=C(N(C)c2ccccc2)CC(C)(C)CC1=O returned ALR inh -1, HDAC3 inhib -2, NALP1 inh -10, MC4R barr agon 0, MC4R antag cAMP 6 and UUG fidelity -9.
For CCCC(=O)C1=C(c2ccccc2)C(C#N)(C#N)C(C#N)=C1N the results were ALR inh 99*, HDAC3 inhib -1, NALP1 inh 22, MC4R barr agon -2, MC4R antag cAMP -5 and UUG fidelity -15.
`COc1ccc(S(=O)(=O)N(C)C[C@@H]2Oc3ccc(NC(=O)Nc4c(C)noc4C)cc3C(=O)N([C@@H](C)CO)C[C@@H]2C)cc1` gave UUG fidelity 13.
Screening CC(=O)Nc1ccc(NC(=O)CSc2nc3nc(-c4cccs4)cc(C(F)(F)F)c3c(=O)[nH]2)cc1 returned ALR inh 99*, HDAC3 inhib -7, MC4R barr agon 3 and MC4R antag cAMP 2.

Molecules above containing an aryl methoxy group, in the order listed:
CNC[C@@H]1Oc2ncc(-c3ccc(OC)cc3)cc2C(=O)N([C@H](C)CO)C[C@@H]1C was read as UUG fidelity 1.
`COc1cc(/C=N/n2cnnc2)ccc1OC(=O)c1ccncc1` gave ALR inh 98*, HDAC3 inhib 4, NALP1 inh -14, MC4R barr agon -1, MC4R antag cAMP 2 and UUG fidelity -20.
For COc1cc(/C=N/n2cnnc2)ccc1OC(=O)c1cccnc1 the results were HDAC3 inhib 7, NALP1 inh 16, MC4R barr agon 0 and MC4R antag cAMP 5.
`COc1ccc(S(=O)(=O)N(C)C[C@@H]2Oc3ccc(NC(=O)Nc4c(C)noc4C)cc3C(=O)N([C@@H](C)CO)C[C@@H]2C)cc1` gave UUG fidelity 13.

Other results
For CCn1c(N)c(C(=O)NC)sc1=S the results were ALR inh 99*, HDAC3 inhib 12, NALP1 inh 5, MC4R barr agon 1, MC4R antag cAMP 25 and UUG fidelity -7.
Screening CCn1c(N)c(C(=O)NCc2cccnc2)sc1=S returned ALR inh 99*, HDAC3 inhib 6, NALP1 inh -4, MC4R barr agon 5, MC4R antag cAMP 14 and UUG fidelity -12.
Cc1c(C(=O)NCc2cccnc2)sc2nc(-c3ccccc3)cn12 was read as ALR inh 90*, HDAC3 inhib -1, NALP1 inh 9, MC4R barr agon 0, MC4R antag cAMP 1 and UUG fidelity -8.
Screening CCn1c(N)c(C(=O)NCCCOC)sc1=S returned ALR inh 99*, HDAC3 inhib 2, NALP1 inh 13, MC4R barr agon 2, MC4R antag cAMP 3 and UUG fidelity -5.
Nc1c(C(=O)NCc2cccnc2)sc(=S)n1-c1ccccc1 was read as ALR inh 41, HDAC3 inhib 2, NALP1 inh 20, MC4R barr agon 0, MC4R antag cAMP -2 and UUG fidelity -21.
`COc1ccc(CNC(=O)C[C@@H]2C=C[C@@H](NC(=O)CN(C)C)[C@@H](CO)O2)cc1` gave UUG fidelity -11.
For COc1ccc(NC(=O)N(C)C[C@@H]2Oc3cc(C#CCN(C)C)ccc3S(=O)(=O)N([C@@H](C)CO)C[C@H]2C)cc1 the results were UUG fidelity 11.
CCNC(=O)c1sc(=S)n(CC)c1N was read as ALR inh 99*, HDAC3 inhib 10, NALP1 inh -7, MC4R barr agon 2 and MC4R antag cAMP 3.
CC(C)OCCCNC(=O)c1sc(=S)n(C)c1N was read as HDAC3 inhib 3, NALP1 inh -2, MC4R barr agon 0, MC4R antag cAMP -2 and UUG fidelity 30.
`COc1ccccc1OCC(O)Cn1c(=N)n(Cc2ccccc2)c2ccccc21` (stereo not given) gave ALR inh -7, HDAC3 inhib 2, NALP1 inh 12, MC4R barr agon -2, MC4R antag cAMP -1 and UUG fidelity 8.
Screening Cc1ccccc1OCC(O)Cn1c(=N)n(Cc2ccccc2)c2ccccc21 (stereo not given) returned ALR inh 0, HDAC3 inhib -1, MC4R barr agon 9.1*, MC4R antag cAMP -1 and UUG fidelity 2.
